Laboratory results taken from article PMC7849013, “Structural Investigations of the Inhibition of Escherichia coli AmpC β-Lactamase by Diazabicyclooctanes” (Antimicrobial Agents and Chemotherapy, 2021).

The chains behind the UniProt entries cited, without tags or fusion partners. Residues count along the entry.
UniProt P00811, 20-377: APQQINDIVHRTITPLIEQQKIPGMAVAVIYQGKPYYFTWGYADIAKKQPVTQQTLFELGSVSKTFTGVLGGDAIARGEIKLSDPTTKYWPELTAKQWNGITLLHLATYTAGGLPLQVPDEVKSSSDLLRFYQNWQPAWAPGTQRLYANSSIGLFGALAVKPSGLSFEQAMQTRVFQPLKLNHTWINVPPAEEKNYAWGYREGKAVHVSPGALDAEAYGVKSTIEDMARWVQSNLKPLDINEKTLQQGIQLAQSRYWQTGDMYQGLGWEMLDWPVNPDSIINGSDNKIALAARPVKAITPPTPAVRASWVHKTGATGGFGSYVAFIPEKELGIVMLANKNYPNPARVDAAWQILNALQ

Key:
Assay type in all cases: biochemical
[1] = biological target: T1, AmpC SBL from Escherichia coli (AmpCEC) (Escherichia coli, UniProt P00811); assay: AmpCEC inhibition pIC50 with varied preincubation time and pH (FC-5)
T1 construct: made in house

[2] = biological target: T1, AmpC SBL from Escherichia coli (AmpCEC); assay: Steady-state competitive inhibition kinetics of AmpCEC with fluorescent substrate FC-5 (kobs, Kiapp, k2/K)
Protocol: Assays were performed and analyzed as described previously ([34]). In summary, assays in the presence of inhibitors were carried out under steady-state conditions monitoring hydrolysis of the fluorescent substrate FC-5 ([33]) in 100 mM phosphate buffer, pH 7.5, supplemented with 0.01% (vol/vol) Triton X-100. Fluorescence was measured using a PHERAstar (BMG Labtech) plate reader, recording emission spectra at an excitation wavelength of 380 nm and emission wavelength of 460 nm. […] The pseudo first-order rate constant, kobs, and the apparent inhibition constant, Kiapp, were obtained by assaying 100 nM AmpCEC with 5 μM FC-5 in the presence of various concentrations of the inhibitor. Reactions were initiated by addition of AmpCEC and immediately monitored continuously over 30 s. […] The second-order rate constant (k2/K) was obtained from linear regression of measured kobs values against inhibitor concentrations (see Fig. S3b in the supplemental material) and corrected by the Michaelis constant (Km) and concentration of the substrate. Kiapps ([50]) were determined by linear regression of the reciprocals of the initial rates against inhibitor concentration (Fig. S3a) and corrected using the experimentally determined substrate Km and substrate concentration. […] Off rates were determined from exponential regression in relation to turnover of no enzyme and no inhibitor controls (Fig. S3c). […]

[3] = biological target: T1, AmpC SBL from Escherichia coli (AmpCEC); assay: AmpCEC inhibition pIC50 with varied preincubation time and pH (FC-5); remark: listed apart in the source
Protocol: Assays were performed and analyzed as described previously ([34]). In summary, assays in the presence of inhibitors were carried out under steady-state conditions monitoring hydrolysis of the fluorescent substrate FC-5 ([33]) in 100 mM phosphate buffer, pH 7.5, supplemented with 0.01% (vol/vol) Triton X-100. Fluorescence was measured using a PHERAstar (BMG Labtech) plate reader, recording emission spectra at an excitation wavelength of 380 nm and emission wavelength of 460 nm. […] The pseudo first-order rate constant, kobs, and the apparent inhibition constant, Kiapp, were obtained by assaying 100 nM AmpCEC with 5 μM FC-5 in the presence of various concentrations of the inhibitor. Reactions were initiated by addition of AmpCEC and immediately monitored continuously over 30 s. Activity was fitted to an exponential course in relation to the uninhibited enzyme and a no-enzyme control to give initial rate constants (kobs) (Fig. S1 and Table S2), as described previously ([49]). The second-order rate constant (k2/K) was obtained from linear regression of measured kobs values against inhibitor concentrations (see Fig. S3b in the supplemental material) and corrected by the Michaelis constant (Km) and concentration of the substrate. Kiapps ([50]) were determined by linear regression of the reciprocals of the initial rates against inhibitor concentration (Fig. S3a) and corrected using the experimentally determined substrate Km and substrate concentration. Inhibitor off rates (koff) were measured using the jump-dilution method ([51]); thus, AmpCEC (1 μM) was incubated with the respective inhibitor (10 μM) for 30 min at room temperature and diluted 100,000-fold in the assay buffer to a final enzyme concentration of 10 pM and then immediately assayed using 25 μM (final concentration) FC-5. Off rates were determined from exponential regression in relation to turnover of no enzyme and no inhibitor controls (Fig. S3c). Half-lives of the enzyme-inhibitor complexes were directly calculated from the measured koff values.
pre-incubated with the inhibitors for the indicated times at room temperature and assayed using 5 μM FC-5 [1].
(1 picture or pasted object on this page, not shown here)
AmpCEC (500 pM) was preincubated
with the inhibitors for the indicated times at room temperature, then assayed using 5 μM FC-5 [1]. Buffer: 50 mM
regression (Figure S2), as described in the Materials and Methods. ND: Not determined.

Structure (SMILES): NC(=O)[C@@H]1CC[C@@H]2CN1C(=O)N2OS(=O)(=O)O [AVI, avibactam]
- IC50 ([1]; pIC50, 0 min preincubation, pH 7.0): 295 nM
- IC50 ([1]; pIC50, 0 min preincubation, pH 8.0): 204 nM
- IC50 ([1]; pIC50, 10 min preincubation, pH 7.0): 166 nM
- IC50 ([1]; pIC50, 10 min preincubation, pH 8.0): 70.8 nM
- IC50 ([1]; pIC50, 30 min preincubation, pH 7.0): 61.7 nM
- IC50 ([1]; pIC50, 60 min preincubation, pH 7.0): 30.2 nM
- IC50 ([1]; pIC50, 60 min preincubation, pH 8.0): 15.5 nM
- IC50 ([1]; pIC50, 360 min preincubation, pH 7.0): 9.55 nM
- IC50 ([1]; pIC50, 360 min preincubation, pH 8.0): 8.51 nM
- Ki [2]: 7400 ± 300 nM
- IC50 ([3]; pIC50, 0 min preincubation, pH 7.5, 500 pM AmpCEC, 5 μM FC-5): 240 nM
- IC50 ([3]; pIC50, 10 min preincubation, pH 7.5): 126 nM
- IC50 ([3]; pIC50, 30 min preincubation, pH 7.5): 55 nM
- IC50 ([3]; pIC50, 60 min preincubation, pH 7.5): 22.9 nM
- IC50 ([3]; pIC50, 360 min preincubation, pH 7.5, 500 pM AmpCEC, 5 μM FC-5): 6.92 nM
